The nature of series [1]: Chemical stability of the compound assessed as drug degradation after 3 months at -18 degreeC. The following applies: 2191.5 h.
Series [2] in a line: Drug degradation of the compound in CD2Cl2 after 5 days. The following applies: 120 h.
A short description of series [3]: Dissociation constant, pKa of the compound.
Series [4] concerns Rattus norvegicus. Nature of the series: Toxicity in iv dosed rat assessed as mortality. Conditions: in vivo; call rule not given here.
The test system of series [5] is Mus musculus. Nature of the series: Toxicity in ip dosed Swiss Webster mouse assessed as mortality after 24 hrs. The following applies: in vivo.

Results on ten compounds are retold here after ChEMBL document CHEMBL1955802, “Amidine-oximes: reactivators for organophosphate exposure” (2011).

Structures are written as SMILES.

As for `CN(C)C(=N)/C=N/O.Cl`, in series [1], the Drug degradation entry is on record as “Not Active”. Regarding `CC/N=C(/C=N/O)N(C)C`, the Drug degradation result in series [2] is “Active”. What is called pKa is the pH at which an ionisable group is half protonated. Higher therefore signals a group that holds its proton tightly. As to `O/N=C/c1cc[n+](C[n+]2ccc(/C=N/O)cc2)cc1.[Cl-].[Cl-]`, in series [3], the pKa stood at 7.3.

Regarding `CCC/N=C(/C=N/O)N(C)C.Cl`, the Drug degradation result in series [1] was “Not Active”. As for `C/N=C(/C=N/O)N(C)C`, the Drug degradation entry in series [2] is listed as “Active”. As for `CCC/N=C(/C=N/O)N(C)C`, in series [2], the Drug degradation entry is given as “Active”. In general, LD50 refers to the dose at which mortality reaches 50%. `C[n+]1ccc(/C=N/O)cc1.[Cl-]`: the LD50 in series [4] came to 4.2 mg/kg. For the compound `CC/N=C(/C=N/O)N(C)C.Cl`, in series [1], the Drug degradation entry is on record as “Not Active”. Further, in series [5], the Activity entry is given as “Non-toxic”. As to `CN(C)C(=N)/C=N/O`, in series [2], the Drug degradation entry is listed as “Active”.

In the case of `C/N=C(/C=N/O)N(C)C.Cl`, in series [1], the Drug degradation entry was “Not Active”.
